Experimental data: patent EP1078629A2, “Use of Salmeterol and salts for the treatment of inflammation and allergy” (GLAXO GROUP LIMITED, priority 1989, dated 1991)

System: histamine-induced PPE
Assay: Histamine-induced plasma protein extravasation in the lung
Format: in vivo, guinea-pigs
Description: The method of evaluating the effects of β2-adrenoreceptor agonists on vascular permeability and plasma protein extravasation was adapted from the technique of Erjefalt et al Acta.Physiol.Scand ., 128, 653-654 (1966). Briefly, guinea-pigs (male Dunkin Hartley, 300-400g) were given an intracardiac injection of iodinated human serum albumin (0.5µCi) in heparinised saline (10U.ml^-1).

SMILES: OCc1cc(C(O)CNCCCCCCOCCCCc2ccccc2)ccc1O (stereo not drawn) [salmeterol, 4-hydroxy-α^1-[[[6-(4-phenylbutoxy)hexyl]amino]methyl]-1,3-benzenedimethanol]
- concentration required to reduce histamine-induced PPE by 50% (ED50) (aerosol, nebuliser concentration): 15 µg/mL
- time after administration at which inhibition of histamine induced PPE is still evident (inhaled): 6 to 8 h
